Yeast mating assay 2: variants of the scFv Ab-91

Binding partner: SARS-CoV-2 spike HR2 peptide, sequence PDVDLGDISGINAS.

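In library AAYL51, one, two or three CDR residues were substituted; doubles and triples were drawn at random. The scFvs were displayed on barcoded MATa yeast, the peptide on MATalpha yeast. Pairs that bind mate more often; barcode pairs of the diploids are counted by sequencing. A regression on co-assayed BCL2-family reference pairs converts the normalised counts of each replicate to an apparent Kd. There are three technical replicates.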

The variants keep the light chain, the linker and the frameworks of Ab-91 (scFv order VL, three GGGGS repeats, VH).
VL: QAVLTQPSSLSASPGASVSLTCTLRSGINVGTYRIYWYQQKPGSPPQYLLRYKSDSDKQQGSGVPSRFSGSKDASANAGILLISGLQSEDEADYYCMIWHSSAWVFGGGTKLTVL
VH: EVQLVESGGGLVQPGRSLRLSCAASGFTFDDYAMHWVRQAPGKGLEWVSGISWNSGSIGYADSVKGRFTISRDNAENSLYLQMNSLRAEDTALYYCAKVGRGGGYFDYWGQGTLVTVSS

Variants are written as CDR1, CDR2 and CDR3 of the heavy chain (limits as in the source). Parent: GFTFDDYAMH, GISWNSGSIGYADSVK, VGRGGGYFDY.
Affinities are written as log10 Kd with Kd in nM; a lower number is a better binder.
Averages over replicates are reported, and they cover detected replicates only.
Where no diploid with the target was found in any replicate, the entry reads "not detected": below detection, most likely a poor binder, though not proof of it.
Order: sorted from the lowest average up, undetected variants last.
Empty control strains, which show no peptide, gave a signal in 21% of pairings with library AAYL51; the median was 4.54 and 95% of these signals were weaker than 3.26. No background was subtracted. The control count says in how many pairings with the empty strains this scFv gave a signal.
Parent in this assay: reference entry 1.86, copy in this library 0.88.

CDR-H1,CDR-H2,CDR-H3,mean log10 Kd (nM),detected,control signals
GFTFRDYAMH,GISWNSGSIGYADSVK,VQRGGGYFAY,1.00,3/3,0/9
GFTFDDYAQH,GISWNSYSIGYADSVK,VGRGGGYFDY,1.21,3/3,1/9
GFTFKDYAMH,GISWNSGSIGYADEVK,VGRGGGDFDY,1.36,3/3,4/9
GFEFDDYAMH,GISWNSGSIGVADSVK,VGRGGGYFDY,1.39,3/3,6/9
GFTFDDYAYH,GISWNSGSIGYADSVY,VGKGGGYFDY,1.65,3/3,2/9
GFTFRNYAMH,GISWNSCSIGYADSVK,VGRGGGYFDY,2.16,3/3,0/9
GFTFDDAAMH,GISWNSGSIGYADSVK,VGRGHGYFDM,2.41,3/3,0/9
GFTFDDYAMH,GISWNAGSIGYADSVA,VMRGGGYFDY,2.66,3/3,4/9
GSTFDFYAMH,GISWNSGSIGYADSVK,VGRGGGYFDY,2.92,1/3,1/9
GFTFDDYAMH,GISWNSGSIGEADSVK,VGRGMGYFVY,3.25,3/3,6/9
GFTFDDYFMH,GISWESGSIGYADSVK,VGRGGVYFDY,3.34,1/3,1/9
GITFDDAAMH,GISWNSGSIGYADSMK,VGRGGGYFDY,3.47,3/3,1/9
GFTFHDYAMH,GISWNSGSIGYADSVK,VGRCGGYFDY,3.52,3/3,3/9
GFTTDDYAMH,GISWNSGSIGPADSVK,VGRGGGGFDY,3.60,2/3,2/9
GFTMDDYAMH,GISWNSGSIGYADSVK,VGRKGHYFDY,3.73,1/3,1/9
GFTFDDYAMH,WISWNSGSIGYADVVK,VGRGGGYFDP,3.79,2/3,0/9
GFTFDDYAMH,GDSWNSGSIGYADSVK,GGRGGGYFNY,3.96,1/3,5/9
FFTFDDFAMH,GISWNSGSIGYADSVK,VDRGGGYFDY,3.99,2/3,1/9
GPTFDDYAMH,GISWNSGSIGYADSVK,VGSGGGYFDY,4.06,1/3,0/9
GFTFDDYAMH,GISWNPGSIGYAASVK,VGRGGGYMDY,4.07,3/3,2/9
GFTFDDYAMH,GISRNSGSIGYAMSVK,VGRGGGYDDY,4.09,3/3,5/9
GFTFDAYAMH,GISWNSGSIGYSDSGK,VGRGGGYFDY,4.19,1/3,0/9
GFTFDDYAMS,GISWNSGSIGVADSVK,VVRGGGYFDY,4.25,1/3,1/9
GFTFDDYAMH,GIRWRSGSIGYADSQK,VGRGGGYFDY,4.25,2/3,6/9
GFTFDDYAMH,GCSWNSGSIGYADSVK,VGMGGGYFDY,4.36,2/3,6/9
YFTFDMYAMH,GISWNSGSIGYEDSVK,VGRGGGYFDY,4.37,1/3,1/9
AFTFDDYAMH,GPVWNSGSIGYADSVK,VGRGGGYFDY,4.41,2/3,1/9
EFTFDGYAMH,GISWNSGSIGYADSVK,VGRGGYYFDY,4.51,1/3,1/9
GFTFDFYAMH,GISWNSGSIGYADRVK,VGRGGGYFMY,4.53,1/3,2/9
GFTFDDYAMH,DISKNSGSIGYADSVK,VGRGGTYFDY,4.53,1/3,3/9
GFTFDDYAMH,GTSWNSGSIGYADSVK,VGRYGGYFDY,4.56,1/3,1/9
GFTFDDYAMH,GISVNSESIGYADSVK,VGRGDGYFDY,4.57,1/3,0/9
GFTFDDYAMH,GISWNSGDIGYADDVK,VGRIGGYFDY,4.58,1/3,0/9
GFTFDDYAMH,GKSWNSGSIGEADSVK,VGRGRGYFDY,4.58,2/3,3/9
GFTFDKGAMH,GISWNSGSIGYADSVK,VGRGGGEFDY,4.60,1/3,3/9
GFTCDDYAMH,GISWYSGSIGYADSVK,VGRGGEYFDY,4.60,2/3,3/9
GFTRDDYAMH,GISWNSGSIGYANSVK,VGDGGGYFDY,4.70,3/3,3/9
GFTFDDYAMY,GISWNSGSCGYADSVK,VGRGGGYFSY,4.70,2/3,5/9
GFTFDDYAMH,GISWNSGGCGYADSVK,VGRGGGYFDY,4.86,1/3,1/9

Second part, the sequence after the result:

mean log10 Kd (nM),detected,control signals,CDR-H1,CDR-H2,CDR-H3
4.97,1/3,3/9,GFTFDLYAMH,GISWNSGSIGYADSVK,VKRGGGYFYY
5.00,1/3,3/9,GFTFDNYAMH,GGSWPSGSIGYADSVK,VGRGGGYFDY
5.03,1/3,2/9,GFTMDDYAMH,GILWNSGSIGYADSVK,VCRGGGYFDY
5.12,1/3,2/9,GFTFDDYAMH,GIEWNSGSIGYADSVK,HGRGGGYFDY
5.24,3/3,8/9,GFTFDDYAMH,GLSWNSGSIGYADSHK,VGRGGGYFDY
5.26,3/3,5/9,GFTFDDYSMH,GYSWNEGSIGYADSVK,VGRGGGYFDY
5.40,2/3,4/9,GFTTDDYAMH,GISWNSFSIGWADSVK,VGRGGGYFDY
5.40,3/3,1/9,GFGFDDYAMH,GISWNSRSIGYAMSVK,VGRGGGYFDY
5.41,2/3,6/9,GFTFDDYAMH,GISWNSGIIGYADSVK,VTRGGGYFDY
5.50,1/3,6/9,GFTFDDYPMW,GISWNSGSIGYADSVK,VGRGGGYFDQ
5.67,3/3,6/9,GFTFDDYAMH,KISWNSGNIGYADSVK,VGRGGGYFMY
6.60,1/3,6/9,GFTFDDYAMH,GISWNSGSLYYADSVK,VVRGGGYFDY
not detected,0/3,0/9,LATFDDYAMH,GISWNSGSEGYADSVK,VGRGGGYFDY
not detected,0/3,0/9,GFTWDDYAMH,AISWNSGSIGSADSVK,VGRGGGYFDY
not detected,0/3,1/9,GFTQDDYAMR,GISWNSGSIGYADSVK,VGRGGGYFDY
not detected,0/3,0/9,GFTTDDYAMH,GISWNSGSIGYSDSVK,VGRGGGIFDY
not detected,0/3,1/9,GFTFDDYAMH,GISWNSQSIGYHDSVK,VGRGGGYGDY
not detected,0/3,3/9,GNTFDDYAMH,GISWNSGSIGYMDSVY,VGRGGGYFDY
not detected,0/3,0/9,GFTFDDYAMR,GISWNSGSIGYADSVK,YGRGGAYFDY
not detected,0/3,3/9,GFTFDDMAMH,GISWLSGSIGYADSVK,VGRGGGYFDY
not detected,0/3,1/9,GNTFDWYAMH,GISANSGSIGYADSVK,VGRGGGYFDY
not detected,0/3,0/9,GFTFDDYAMH,GISWNSFKIGYADSVK,VGRGGGYLDY
not detected,0/3,2/9,GFTFDDYARH,GISWNSGSIGYAHSVK,SGRGGGYFDY
not detected,0/3,0/9,GFTFDFYAHH,GISWLSGSIGYADSVK,VGRGGGYFDY
not detected,0/3,1/9,GFKFDDLAMH,GISWNSGSIGYADSVK,VGRLGGYFDY
not detected,0/3,2/9,EFTFDDYAMH,GHSWNSGSIGWADSVK,VGRGGGYFDY
not detected,0/3,1/9,GFTFDDYAMH,GISWNRGSIGYADSVK,VGRGYGYFDE
not detected,0/3,0/9,GFTFDFYATH,GISWNSGSIGYADSVK,VGRGGGYFRY
not detected,0/3,1/9,GFTFYDYFMH,GISWDSGSIGYADSVK,VGRGGGYFDY
not detected,0/3,0/9,GFTFDDYAMV,GISANSGSIGYADSVK,VGRLGGYFDY
not detected,0/3,0/9,GATFDDYAMH,GISWNSGSIGYADSVK,VGYGGGYYDY
not detected,0/3,1/9,GQTDDDYAMH,GISWNSGSIGYADSVK,VGRPGGYFDY
not detected,0/3,0/9,GETFDDYAMH,GISWNSGSIGEADSVK,VGRTGGYFDY
not detected,0/3,0/9,EFTFDDYAMH,GISWNSGSCGYADSVK,VGRGGGYFTY
not detected,0/3,0/9,GFTFDDNAMH,QISWNSGSIGYADIVK,VGRGGGYFDY
not detected,0/3,1/9,GFTFDDYMMM,GGSWNSGSIGYADSVK,VGRGGGYFDY
not detected,0/3,1/9,GFTFDDAAMH,GIGWNSGSIGYADSVK,VGRGEGYFDY
not detected,0/3,1/9,GFTYDDYAMQ,GISWNVGSIGYADSVK,VGRGGGYFDY
not detected,0/3,0/9,AFTFDDYAMH,GISWNSGSIGYRDSVK,VGRGGGYWDY

The first 6 entries again:

| CDR-H1 | CDR-H2 | CDR-H3 | mean log10 Kd (nM) | detected | control signals |
|---|---|---|---|---|---|
| GFTFRDYAMH | GISWNSGSIGYADSVK | VQRGGGYFAY | 1.00 | 3/3 | 0/9 |
| GFTFDDYAQH | GISWNSYSIGYADSVK | VGRGGGYFDY | 1.21 | 3/3 | 1/9 |
| GFTFKDYAMH | GISWNSGSIGYADEVK | VGRGGGDFDY | 1.36 | 3/3 | 4/9 |
| GFEFDDYAMH | GISWNSGSIGVADSVK | VGRGGGYFDY | 1.39 | 3/3 | 6/9 |
| GFTFDDYAYH | GISWNSGSIGYADSVY | VGKGGGYFDY | 1.65 | 3/3 | 2/9 |
| GFTFRNYAMH | GISWNSCSIGYADSVK | VGRGGGYFDY | 2.16 | 3/3 | 0/9 |

Source: Engelhart et al. 2022 (doi:10.1038/s41597-022-01779-4), MIT Lincoln Laboratory and A-Alpha Bio; data file from the FLAb repository.